Experiments:
PIK3CB (Human) = PIK3CB (Human) (UniProt P42338); assay: Enzyme Assay
PIK3CD (Human) = PIK3CD (Human) (UniProt O00329); assay: Enzyme Assay

Amino acid sequences for entries named in this document (tags omitted). A change or cut given only in a name is not applied to a line headed by its entry.
UniProt P42338: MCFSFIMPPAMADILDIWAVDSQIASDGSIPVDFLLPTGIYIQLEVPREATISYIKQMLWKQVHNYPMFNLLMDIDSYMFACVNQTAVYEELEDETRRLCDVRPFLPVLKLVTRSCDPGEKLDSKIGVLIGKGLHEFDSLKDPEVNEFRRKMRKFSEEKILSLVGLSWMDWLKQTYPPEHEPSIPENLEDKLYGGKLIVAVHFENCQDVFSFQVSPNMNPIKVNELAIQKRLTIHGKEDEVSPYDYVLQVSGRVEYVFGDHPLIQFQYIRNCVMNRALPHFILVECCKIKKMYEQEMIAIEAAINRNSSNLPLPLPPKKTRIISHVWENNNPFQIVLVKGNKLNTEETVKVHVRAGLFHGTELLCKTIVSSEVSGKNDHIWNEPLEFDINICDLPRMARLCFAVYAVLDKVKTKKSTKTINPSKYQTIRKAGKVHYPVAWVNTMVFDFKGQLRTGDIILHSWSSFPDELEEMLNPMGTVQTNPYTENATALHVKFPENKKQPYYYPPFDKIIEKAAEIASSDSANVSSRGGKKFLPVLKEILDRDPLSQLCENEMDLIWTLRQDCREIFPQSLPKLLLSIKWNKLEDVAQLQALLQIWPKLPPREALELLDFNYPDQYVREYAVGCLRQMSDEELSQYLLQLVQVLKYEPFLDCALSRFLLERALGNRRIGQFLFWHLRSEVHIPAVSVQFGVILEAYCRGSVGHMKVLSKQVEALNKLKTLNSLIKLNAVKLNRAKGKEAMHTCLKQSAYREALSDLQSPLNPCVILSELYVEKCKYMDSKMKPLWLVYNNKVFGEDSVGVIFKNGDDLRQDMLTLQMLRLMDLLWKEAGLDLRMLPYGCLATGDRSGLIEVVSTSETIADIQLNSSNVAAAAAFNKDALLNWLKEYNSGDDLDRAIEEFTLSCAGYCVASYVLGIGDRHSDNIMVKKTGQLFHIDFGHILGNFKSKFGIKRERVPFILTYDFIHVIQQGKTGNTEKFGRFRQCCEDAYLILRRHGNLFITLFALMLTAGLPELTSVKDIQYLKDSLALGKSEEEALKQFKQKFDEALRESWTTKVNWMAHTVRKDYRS
UniProt O00329: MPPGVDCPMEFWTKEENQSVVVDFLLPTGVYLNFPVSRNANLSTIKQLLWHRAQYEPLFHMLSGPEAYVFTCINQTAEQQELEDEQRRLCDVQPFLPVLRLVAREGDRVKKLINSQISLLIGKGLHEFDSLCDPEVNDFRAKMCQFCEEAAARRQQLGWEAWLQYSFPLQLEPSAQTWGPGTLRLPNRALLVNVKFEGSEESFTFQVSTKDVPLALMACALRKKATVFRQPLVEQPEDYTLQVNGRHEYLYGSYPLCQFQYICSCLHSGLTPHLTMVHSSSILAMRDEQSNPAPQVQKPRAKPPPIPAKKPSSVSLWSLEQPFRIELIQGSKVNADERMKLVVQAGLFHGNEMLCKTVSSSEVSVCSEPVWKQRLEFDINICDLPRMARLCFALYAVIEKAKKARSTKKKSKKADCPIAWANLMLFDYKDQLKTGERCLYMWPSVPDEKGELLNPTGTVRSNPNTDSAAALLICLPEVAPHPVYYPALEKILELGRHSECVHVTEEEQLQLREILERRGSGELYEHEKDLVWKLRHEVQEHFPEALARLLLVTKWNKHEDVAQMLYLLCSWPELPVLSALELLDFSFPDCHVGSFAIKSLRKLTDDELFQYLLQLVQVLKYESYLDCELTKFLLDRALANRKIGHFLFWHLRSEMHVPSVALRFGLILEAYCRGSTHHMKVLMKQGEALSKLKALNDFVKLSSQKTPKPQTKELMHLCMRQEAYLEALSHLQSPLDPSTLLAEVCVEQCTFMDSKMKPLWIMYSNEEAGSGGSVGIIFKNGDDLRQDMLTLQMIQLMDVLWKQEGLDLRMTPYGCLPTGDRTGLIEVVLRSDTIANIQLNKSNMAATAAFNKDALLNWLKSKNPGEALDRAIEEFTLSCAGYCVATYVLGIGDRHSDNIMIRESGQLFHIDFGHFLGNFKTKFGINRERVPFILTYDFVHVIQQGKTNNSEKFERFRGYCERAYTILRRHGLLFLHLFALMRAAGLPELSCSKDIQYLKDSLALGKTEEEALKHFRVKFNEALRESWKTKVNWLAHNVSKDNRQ

IC50 (PIK3CB (Human)) [µM] | IC50 (PIK3CD (Human)) [µM] | Structure (SMILES)
5 to 10 |  | C[C@H](NC(=O)c1c(N)nn2cccnc12)c1cc2cccc(C#Cc3ccc(=O)[nH]c3)c2c(=O)n1-c1ccccc1
1 to 5 | 1 to 5 | C[C@H](NC(=O)c1c(N)nn2cccnc12)c1cc2cccc(C#Cc3cn(C)cn3)c2c(=O)n1-c1ccccc1

Source: the Kinase Knowledgebase extract (Sharma et al. 2016)
